## Binding of CDR-mutated scFvs to a peptide of the spike HR2 region

The target is the same throughout: PDVDLGDISGINAS, from the HR2 region of SARS-CoV-2 spike.

Ab-95 is the parent antibody, in scFv form: VH, then three GGGGS repeats, then VL. The heavy chain is unchanged in all variants.
VH: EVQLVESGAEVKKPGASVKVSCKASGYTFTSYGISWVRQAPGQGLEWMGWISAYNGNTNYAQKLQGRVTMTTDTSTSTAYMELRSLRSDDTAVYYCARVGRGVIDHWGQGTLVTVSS
VL: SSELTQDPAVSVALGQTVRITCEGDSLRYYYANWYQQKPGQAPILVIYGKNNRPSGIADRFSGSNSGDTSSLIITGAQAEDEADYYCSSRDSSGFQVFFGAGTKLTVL

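The parent was found by panning a naive human phage display library on the peptide. In library AAYL52, one, two or three CDR residues were substituted; doubles and triples were drawn at random. The scFvs were displayed on barcoded MATa yeast, the peptide on MATalpha yeast. Binding brings cells together so that they mate, and sequencing counts the barcode pairs among the diploids. The ratio of observed to expected reads was calibrated, replicate by replicate, on BCL2-family standards whose Kd was known from biolayer interferometry. There are three technical replicates.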

Changes read parent residue, position, new residue, counted from the first residue of the VL shown.
Numbers give log10(Kd / nM), so 0 is 1 nM and 3 is 1 µM. Smaller is tighter.
Replicates are averaged; those with no signal do not enter the mean.
An entry "nd" has no value in the source: the pair was not observed among the diploids in that replicate. This suggests poor binding but is not conclusive.
As a blank, each scFv also met three strains without target: over library AAYL52, 28% of these pairings were detected, typically at 3.91 and seldom below 2.90. Also given: how often the same scFv was detected with the empty control strains.

E23P/G24R/Y29D: 1.90, 1.65, 1.48 (mean 1.68; controls 2 of 9).
D25M/N51E/S55Q: 3.00, 2.75, 2.47 (mean 2.74; controls 3 of 9).
Y29A/A32P/N52Y: 1.88, 1.54, 1.18 (mean 1.53; controls 0 of 9).
G49C/K50M/F95I: nd, 4.18, 4.28 (mean 4.23; controls 2 of 9).
Y30N/S92L/S93C: 1.38, 1.12, 0.69 (mean 1.07; controls 4 of 9).
R28N/K50T/N52I: 2.28, 2.42, 2.51 (mean 2.40; controls 2 of 9).
D25Q/F95D/F98P: nd, 2.70, 3.07 (mean 2.88; controls 0 of 9).
R28N/N52Q/S93T: 1.70, 1.66, 1.42 (mean 1.59; controls 3 of 9).
N33M/S89P: 3.50, nd, nd (controls 0 of 9).
Y29S/R90S/Q96A: 3.91, nd, nd (controls 1 of 9).
G24K/R53L/G94N: 3.68, 4.49, nd (mean 4.08; controls 4 of 9).
Y29A/K50S/G94K: nd, 5.12, 3.95 (mean 4.54; controls 4 of 9).
Y30K/P54T/V97W: nd, nd, 2.71 (controls 0 of 9).
G49V/N52T/F98T: 3.38, 3.97, nd (mean 3.68; controls 3 of 9).
D25G/R28P/P54W: 3.25, 3.43, 3.07 (mean 3.25; controls 4 of 9).
L27V/P54D/S55E: 4.96, nd, 3.84 (mean 4.40; controls 3 of 9).
R28Q/Y30W/A32F: 2.89, 3.14, 2.74 (mean 2.92; controls 8 of 9).
Y31Q/G49L/Q96Y: 4.33, nd, nd (controls 2 of 9).
E23G/G24Y/A32L: 2.58, 2.82, 4.40 (mean 3.27; controls 4 of 9).
Y29I/F95L: 4.68, 4.05, 4.33 (mean 4.35; controls 4 of 9).
A32K/G94E/F95H: 2.85, 3.78, 4.16 (mean 3.60; controls 1 of 9).
G24Y/R53E/P54A: 5.18, 4.40, 4.50 (mean 4.69; controls 5 of 9).
P54C/S92K/S93Y: 3.09, 3.46, 3.88 (mean 3.48; controls 2 of 9).
D25Q/Y29C/V97K: 3.50, 2.81, 2.83 (mean 3.05; controls 1 of 9).
G24Q/S26I/Y29T: 5.34, nd, nd (controls 4 of 9).
L27G/S55R/V97L: 3.43, 3.87, 2.77 (mean 3.36; controls 2 of 9).
D25M/Y30S/G94A: 1.86, 1.87, 1.84 (mean 1.86; controls 1 of 9).
S55H/Q96H: 2.39, 2.70, 2.41 (mean 2.50; controls 6 of 9).
R28Q/N51Y/F98R: 3.01, 3.37, 2.45 (mean 2.94; controls 4 of 9).
R28I/Y29N/F95H: 1.90, 1.62, 1.25 (mean 1.59; controls 1 of 9).
S26F/S89L/V97N: nd, nd, nd (controls 1 of 9).
G24F/R28M/S89L: 2.71, 2.19, 2.40 (mean 2.43; controls 6 of 9).
E23P/Y31P/R90D: 3.41, nd, nd (controls 0 of 9).
D25I/S26V/R28C: nd, 4.79, 3.65 (mean 4.22; controls 5 of 9).
S55N/S89Q/G94Y: nd, nd, nd (controls 3 of 9).
G24D/K50H/N52W: 5.48, nd, nd (controls 3 of 9).
N51T/S93F/V97S: 3.25, 3.40, 3.91 (mean 3.52; controls 2 of 9).
Y29D/D91R/F95V: nd, nd, nd (controls 0 of 9).
A32G/R53C/F95C: 4.30, 2.92, 4.03 (mean 3.75; controls 6 of 9).
Y31I/N33Q/V97C: 4.12, nd, nd (controls 4 of 9).

For reference, 3 entries of the list once more:

{"changes": "P54C/S92K/S93Y", "log10 Kd, replicates": "3.09, 3.46, 3.88", "mean log10 Kd (nM)": "3.48", "signal with controls": "2/9"}
{"changes": "Y30N/S92L/S93C", "log10 Kd, replicates": "1.38, 1.12, 0.69", "mean log10 Kd (nM)": "1.07", "signal with controls": "4/9"}
{"changes": "Y29I/F95L", "log10 Kd, replicates": "4.68, 4.05, 4.33", "mean log10 Kd (nM)": "4.35", "signal with controls": "4/9"}

Source: Engelhart et al. 2022 (doi:10.1038/s41597-022-01779-4), MIT Lincoln Laboratory and A-Alpha Bio; data file from the FLAb repository.